ChEMBL document CHEMBL1152272, “Inhibitor scaffolds for 2-oxoglutarate-dependent histone lysine demethylases” (J Med Chem, 2008)

Experiments:
[1] = Inhibition of 2-oxoglutarate-dependent human JMJD2E in presence of excess 2-oxoglutarate and 10 uM Fe2 by FDH coupled assay
[2] = Inhibition of 2-oxoglutarate-dependent human JMJD2E preincubated for 30 mins by FDH coupled assay

O=C(O)CNC(=O)C(=O)O [N-OXALYLGLYCINE]
IC50 [1]: 830 µM | IC50 [2]: 24 µM
